miR-21 reporter = miR-21 reporter, rising signal | HeLa miR-21 FLuc reporter, luciferase, 48 h | Potency, µM (highest dose often 38.3 µM), for inactives: at the top dose reporter change, positive = more light | 340,000 tested, under 10 active | AID 2288; active = well fitted rising curve with a large enough effect; inconclusive = small, poorly fitted or top-dose-only effect; inactive = no such curve, though single readings can be large or run the other way;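 further: % of control where 0% means no effect; miR-21 action dims this reporter so a rising signal means less miR-21 action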
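Using DMEM plus 10% FBS, HeLa miR-21-FLuc cells are incubated with test compounds (final up to about 40uM) for 48 hours; firefly luciferase signal is then imaged following reagent-mediated lysis.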
IL2 activator = IL-2 activation | IL-2 activation reporter assay, cell-based qHTS; stimulated with anti-CD3/CD4/CD28 beads; in transgenic mouse T cells | activation, % (series mostly up to about 46 µM) | 360,000 compounds, 0.065% hits | AID 652025; in the data active means activation above about 50%; inconclusive means mostly about 30% to 49%; further: 0% is about no effect
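Readout is EGFP and DsRed signal by fluorescent plate cytometry after 18 h at 37 degrees C. Transgenic mouse T cells (750/well) received compound for 60 min before bead stimulation (anti-CD3, anti-CD4, anti-CD28); memory T cells served as non-tolerant control.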
ClpP mod = qHTS Assay for Activators of ClpP | 340,000 compounds, 1.9% hits | ATP-dependent Clp protease proteolytic subunit (Bacillus subtilis (strain 168)), P80244 | AID 651965, 2013 | purified B. subtilis ClpP, FRET peptide cleavage, 20 min | Potency, µM (top dose mostly 57.5 µM), for inactives: at the top dose activity change, negative = active; active means well fitted falling curve with a large enough effect; inconclusive means small, poorly fitted or top-dose-only effect; inactive means no such curve, though single readings can be large or run the other way; further: potency means the concentration at half of the fitted maximal effect; the source files actives as falling curves though it sought activators and does not explain the sign; nearly all actives have a fitted effect of over 65% in size
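Purified B. subtilis ClpP, 10 microg/mL final in Tris/HCl pH8 with KCl, BSA, glycerol and Tween-20, cleaved an Abz/nitrotyrosine-quenched decapeptide. Fluorescence (ex 320, em 430) was read at 0 and 20 min at room temperature. Delta was normalized to 5.8 microM ADEP and DMSO/no-enzyme controls.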
Nrf2 block = inhibitors of Nrf2 signaling; A549 ARE-Fluc reporter, luciferase luminescence, 18-24 h; AID 504444; 360,000 compounds, 2.1% hits; Potency, µM (doses to about 46 µM), for inactives: at the top dose activity change, negative = inhibition, usual class: inhibitors; further: potency means the concentration at half of the fitted maximal effect; on the % scale 0 is the no-effect control and ±100 the full control effect; nearly all actives have a fitted effect of over 60% in size
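In this cell-based qHTS, ARE-driven firefly luciferase in A549 cells reports Nrf2 activity; the luminescent signal after BugLite lysis is the measured value, with a prior CellTiter-Fluor read for cell health.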
A549 viability = kills or reduces viability of A549 cells in Nrf2 counter-screen | Potency, µM (top dose mostly 46 µM), for inactives: at the top dose activity change, negative = cytotoxicity, hits mostly inhibitors | 390,000 compounds, 0.16% hits | A549 ARE-Fluc cells, CellTiter-Fluor viability, 18-24 h; further: potency means the concentration at half of the fitted maximal effect; on the % scale 0 is the no-effect control and ±100 the full control effect
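A549 ARE_Fluc cells in 5% FBS OPTI-MEM were exposed to compounds in concentration-response for 18-24 h at 37 deg C. Viability was read by CellTiter-Fluor fluorescence (Ex 405/Em 525) after 30 min, before the luciferase read.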
Nrf2 ARE act = Nrf2 pathway activation; AREc32 ARE-luciferase reporter (MCF7-derived line), luminescence, 24 h; Potency, µM (top dose mostly 46.1 µM), without a hit: top-dose activation, most hits filed as activators; 410,000 compounds, 0.31% hits; further: potency means the concentration at half of the fitted maximal effect; % of control where 0% means no effect; nearly all actives have a fitted effect of over 65% in size
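Reporter line AREc32 (ARE-Fluc), seeded overnight in OPTI-MEM with 5% FBS; compound pin-transferred, 24 hr at 37 deg C, 5% CO2; luminescent read-out.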
Active calls of the source: *; ? = inconclusive; nt = no result given; ! = not confirmed by another sample; [ ] = dose if it differs, or a comment. The list is not random: actives were taken first. Their share in the collection is about 3.7%. Unless noted, the call rests on the fitted dose curve; in most records, active means well fitted curve in the direction sought with a large enough effect; inconclusive means small, poorly fitted or top-dose-only effect, or another doubt; inactive means no such curve, though single readings can be large; an effect the other way counts as inactive or inconclusive.

Abbreviations: A = miR-21 reporter; B = IL2 activator; C = ClpP mod; D = Nrf2 block; E = A549 viability; F = Nrf2 ARE act
smiles: Cc1cc2c(s1)c1cnn(Cc3c(F)ccc(F)c3F)c(=O)c1n2C
  A = nt; B = nt; C = nt; D = 27.5%; E = 3.9%; F = nt

smiles: COc1ccc(-c2cc3nc4n(c(=O)c3s2)CCCCC4)cc1
  A = -73.0%; B = -0.6; C = nt; D = ?; E = -5.5%; F = 2.4%

smiles: Cn1c(NCc2ccccc2)nc2cc(-c3ccccc3)sc2c1=O
  A = nt; B = 1.5; C = ?; D = nt; E = nt; F = 26.1%

smiles: Cc1nc2cc(-c3ccccc3)sc2c(=O)n1N
  A = 19.3%; B = -0.1; C = -10.3%; D = 4.11µM*; E = -0.5%; F = -0.2%

smiles: COc1ccc(-c2cc3nc(C)n(N)c(=O)c3s2)cc1
  A = ?; B = -0.2; C = 4.0%; D = 6.51µM*; E = 16.1%; F = -3.2%

smiles: Cc1cc(C(=O)COC(=O)CNC(=O)c2ccco2)c(C)n1Cc1ccco1
  A = -4.1%; B = -0.5; C = -0.5%; D = 0.5%; E = 0.7%; F = 2.0%

smiles: COc1cc(OC)cc(C(=O)NCC(=O)OCC(=O)c2cc(C)n(Cc3ccco3)c2C)c1
  A = -9.2%; B = -4.4; C = 10µM*; D = 13.2%; E = 0.5%; F = 3.2%

smiles: COc1ccc(CNC(=O)c2ccc3c(c2)nc2n3CCCCC2)c(OC)c1
  A = -37.9%; B = nt; C = -0.7%; D = nt; E = -4.6%; F = 4.8%

smiles: COc1cc(NC(C)=O)c2ncccc2c1[N+](=O)[O-]
  A = 0.5%; B = 0.4; C = 22.4µM*; D = -29.6%; E = 2.8%; F = 0.9%

smiles: COc1cc(NC(C)=O)c2ncccc2c1NC(C)=O
  A = 5.6%; B = -0.3; C = -6.1%; D = 10.7%; E = 1.5%; F = -0.6%

smiles: O=[S+]([O-])(c1c(F)cccc1F)N1CCN([S+](=O)([O-])c2c(F)c(F)c(F)c(F)c2F)CC1
  A = nt; B = nt; C = nt; D = -7.9%; E = -4.3%; F = nt

smiles: COC(=O)c1ccc(Cl)cc1N(Cc1c(F)cccc1Cl)S(C)(=O)=O
  A = 0.4%; B = -1.0; C = nt; D = 18.4µM*; E = ?; F = 0.3%

smiles: c1ccc(N2CC3COc4ccccc4C3=N2)cc1 (stereo unspecified)
  A = nt; B = -3.2; C = 25.1µM*; D = ?; E = ?; F = 8.91µM*

smiles: CCCCN(CC)CCCNC(=O)c1cn(CC(C)C)c(=O)c2c1c1ccccc1n2C
  A = 3.0%; B = -1.3; C = 20µM*!; D = 3.4%; E = 5.4%; F = -0.4%

smiles: CCN(CC)CCCNC(=O)c1cn(CC(C)C)c(=O)c2c1c1ccccc1n2C
  A = -1.2%; B = -0.6; C = 15.8µM*; D = 12.9%; E = 15.7%; F = -0.4%

smiles: CC(C)Cn1cc(C(=O)NCCCOC(C)C)c2c3ccccc3n(C)c2c1=O
  A = 0.9%; B = -3.7; C = 28.2µM*; D = 1.1%; E = -1.5%; F = -0.2%

smiles: CC(C)Cn1cc(C(=O)NCC2CCCO2)c2c3ccccc3n(C)c2c1=O (stereo unspecified)
  A = 0.3%; B = -1.2; C = 15.8µM*; D = nt; E = -0.3%; F = -0.6%

smiles: CCOC(CCNC(=O)c1cn(CC(C)C)c(=O)c2c1c1ccccc1n2C)OCC
  A = -0.4%; B = -0.6; C = nt; D = -2.7%; E = 5.4%; F = -0.7%

smiles: O=C(COc1ccccc1)Nc1nnc2n1CCS2
  A = -6.7%; B = nt; C = -0.5%; D = nt; E = -0.2%; F = -0.8%

smiles: COc1ccc(-c2nsc(C(=O)N(c3ccc(F)cc3)C(C(=O)NC3CCCC3)c3ccc(OC)cc3)c2N)cc1 (stereo unspecified)
  A = -3.1%; B = -0.7; C = 15.8µM*; D = -12.7%; E = -3.7%; F = -0.9%

smiles: O=c1c2[nH]c3ccccc3c2ncn1CCN1CCCCC1
  A = -8.6%; B = -2.4; C = 25.1µM*; D = -16.3%; E = 1.6%; F = 2.0%

smiles: Cc1ccc2[nH]c3c(=O)n(Cc4ccncc4)cnc3c2c1
  A = 1.4%; B = -0.5; C = 14.1µM*; D = 7.0%; E = -2.1%; F = 0.5%

smiles: Cc1ccc2c(c1)[nH]c1c(=O)n(CCCN3CCOCC3)cnc12
  A = -15.1%; B = 1.3; C = 28.2µM*; D = nt; E = 3.2%; F = 3.8%

smiles: Cc1ccc2c(c1)[nH]c1c(=O)n(CCN3CCCCC3)cnc12
  A = -4.2%; B = -0.3; C = ?; D = ?; E = 14.6%; F = 0.6%

smiles: COc1ccc(-c2nc3c4ccccc4[nH]c(=O)n3n2)cc1
  A = -61.3%; B = -1.7; C = 31.6µM*; D = ?; E = -3.1%; F = 3.6%

smiles: CCC1CCCCN1S(=O)(=O)c1ccc(NC(=O)c2nc(SC)ncc2Cl)cc1 (stereo unspecified)
  A = 25.8%; B = nt; C = -5.5%; D = ?; E = 1.4%; F = 4.5%

smiles: COc1ccc(N2CCN(C(CNC(=O)C(=O)NCc3ccc(F)cc3)c3cccnc3)CC2)cc1 (stereo unspecified)
  A = -5.8%; B = nt; C = 1.1%; D = -22.9%; E = ?; F = 0.3%

smiles: O=C(NCc1cccs1)C(=O)NCC(c1ccco1)N1CCN(c2ccc(F)cc2)CC1 (stereo unspecified)
  A = 18.3%; B = -3.5; C = nt; D = 14.6µM*; E = -18.5%; F = 0.6%

smiles: COc1ccccc1CNC(=O)C(=O)NCC(c1cccnc1)N1CCN(c2ccc(F)cc2)CC1 (stereo unspecified)
  A = 26.7%; B = nt; C = -2.3%; D = 20.6µM*; E = ?; F = 0.0%

smiles: O=C(NCC(c1cccnc1)N1CCN(c2ccccc2F)CC1)c1cccc(Cl)c1 (stereo unspecified)
  A = 21.5%; B = 1.9; C = -1.3%; D = 20.6µM*; E = -17.3%; F = 4.0%

smiles: O=C(NCC(c1cccnc1)N1CCN(c2ccccc2F)CC1)c1ccc(F)cc1 (stereo unspecified)
  A = 6.0%; B = nt; C = -0.2%; D = -1.4%; E = 0.9%; F = 1.0%

smiles: O=C(COc1ccccc1)NCC(c1ccco1)N1CCN(c2ccccc2F)CC1 (stereo unspecified)
  A = nt; B = -5.5; C = 1.78µM*; D = 6.6%; E = -6.4%; F = -0.6%

smiles: Cc1ccccc1Nc1c(-c2ccco2)nc2c(C)cccn12
  A = 24.4%; B = nt; C = 4.1%; D = 29.8%[9.27 µM]; E = -3.3%; F = 7.1%

smiles: COc1ccc(O)c(-c2nc3ccccc3c(=O)n2Cc2ccccc2)c1
  A = nt; B = nt; C = nt; D = 15.3%; E = -7.7%; F = nt

smiles: O=C(NCC(c1cccnc1)N1CCOCC1)C(=O)Nc1ccc(F)cc1 (stereo unspecified)
  A = 28.5%; B = nt; C = -0.9%; D = 23.1µM*; E = -6.1%; F = 1.3%

smiles: O=C(NCC(c1ccco1)N1CCN(c2ccc(F)cc2)CC1)c1cccs1 (stereo unspecified)
  A = nt; B = -0.8; C = nt; D = 10.1%; E = 1.8%; F = 0.2%

smiles: Cc1ccc(NC(=O)C(=O)NCC(c2cccnc2)N2CCOCC2)cc1C (stereo unspecified)
  A = ?; B = nt; C = -0.7%; D = ?; E = ?; F = -0.1%

smiles: COc1ccc(N2CCN(C(CNC(=O)C(=O)NCc3cccnc3)c3ccco3)CC2)cc1 (stereo unspecified)
  A = 10.4%; B = -1.0; C = -4.2%; D = 6.8%; E = -1.8%; F = -0.4%

smiles: O=C(NCc1cccnc1)C(=O)NCC(c1ccco1)N1CCN(c2ccc(F)cc2)CC1 (stereo unspecified)
  A = 0.7%; B = -2.9; C = -2.5%; D = 20.6µM*; E = -5.2%; F = 1.8%

smiles: COc1ccc(N2CCN(C(CNC(=O)c3cccs3)c3ccco3)CC2)cc1 (stereo unspecified)
  A = nt; B = 0.5; C = 15.8µM*; D = 9.0%; E = 1.5%; F = 0.5%

smiles: CCOCCn1ccc2c(OCC(=O)Nc3ccc(OC(F)(F)F)cc3)cccc2c1=O
  A = -5.2%; B = nt; C = -27.4%; D = nt; E = 1.8%; F = -0.9%

smiles: CN(Cc1nc(Cc2ccccc2F)no1)CC1(N2CCOCC2)CCCCC1
  A = -2.4%; B = -2.5; C = nt; D = 2.1%; E = 0.7%; F = 0.3%

Part of the list above, with two lines to a compound.
Order of results – miR-21 reporter | IL2 activator | ClpP mod | Nrf2 block | A549 viability | Nrf2 ARE act
COc1ccc(N2CCN(C(CNC(=O)c3cccs3)c3ccco3)CC2)cc1 (stereo unspecified)
 : nt | 0.5 | 15.8µM* | 9.0% | 1.5% | 0.5%
CCOCCn1ccc2c(OCC(=O)Nc3ccc(OC(F)(F)F)cc3)cccc2c1=O
 : -5.2% | nt | -27.4% | nt | 1.8% | -0.9%
